{
  "source": "patent US11116748B2",
  "about": "“Compositions and methods for reducing weight gain” (THE MEDICAL COLLEGE OF WISCONSIN, INC., priority 2018, dated 2021)",
  "origin": "cited, not measured here",
  "system": "gut microbiome",
  "conditions": "mice receiving risperidone; cited from earlier work",
  "data": [
    {"smiles": "Cc1nc2n(c(=O)c1CCN1CCC(c3noc4cc(F)ccc34)CC1)CCCC2", "note": "[risperidone]", "values": [
      {"measurement": "non-aerobic resting metabolism", "result": "suppress non-aerobic resting metabolism"}
    ]}
  ]
}
